This experiment concerns the target Histamine H1 receptor (Cavia porcellus) (UniProt P31389). Kind of experiment: Negative logarithm of receptor dissociation constant Kp was reported in guinea pig ileum whole segments.

Turning to `NCCc1c[nH]c(CCCCC(c2ccccc2)c2ccccc2)n1`, the pKp amounted to 6.21.

(Values after ChEMBL document CHEMBL1132974 (J Med Chem, 2000).)
